Reference: US20250051335A1, “TAU-TUBULIN KINASE (TTBK) INHIBITOR COMPOUNDS” (CONSEJO SUPERIOR DE INVESTIGACIONES CIENTÍFICAS (CSIC), priority 2021, published 2025)

Amino acid sequences for entries named in this document (tags omitted). A change or cut given only in a name is not applied to a line headed by its entry. Residues count along the entry.
UniProt Q5TCY1: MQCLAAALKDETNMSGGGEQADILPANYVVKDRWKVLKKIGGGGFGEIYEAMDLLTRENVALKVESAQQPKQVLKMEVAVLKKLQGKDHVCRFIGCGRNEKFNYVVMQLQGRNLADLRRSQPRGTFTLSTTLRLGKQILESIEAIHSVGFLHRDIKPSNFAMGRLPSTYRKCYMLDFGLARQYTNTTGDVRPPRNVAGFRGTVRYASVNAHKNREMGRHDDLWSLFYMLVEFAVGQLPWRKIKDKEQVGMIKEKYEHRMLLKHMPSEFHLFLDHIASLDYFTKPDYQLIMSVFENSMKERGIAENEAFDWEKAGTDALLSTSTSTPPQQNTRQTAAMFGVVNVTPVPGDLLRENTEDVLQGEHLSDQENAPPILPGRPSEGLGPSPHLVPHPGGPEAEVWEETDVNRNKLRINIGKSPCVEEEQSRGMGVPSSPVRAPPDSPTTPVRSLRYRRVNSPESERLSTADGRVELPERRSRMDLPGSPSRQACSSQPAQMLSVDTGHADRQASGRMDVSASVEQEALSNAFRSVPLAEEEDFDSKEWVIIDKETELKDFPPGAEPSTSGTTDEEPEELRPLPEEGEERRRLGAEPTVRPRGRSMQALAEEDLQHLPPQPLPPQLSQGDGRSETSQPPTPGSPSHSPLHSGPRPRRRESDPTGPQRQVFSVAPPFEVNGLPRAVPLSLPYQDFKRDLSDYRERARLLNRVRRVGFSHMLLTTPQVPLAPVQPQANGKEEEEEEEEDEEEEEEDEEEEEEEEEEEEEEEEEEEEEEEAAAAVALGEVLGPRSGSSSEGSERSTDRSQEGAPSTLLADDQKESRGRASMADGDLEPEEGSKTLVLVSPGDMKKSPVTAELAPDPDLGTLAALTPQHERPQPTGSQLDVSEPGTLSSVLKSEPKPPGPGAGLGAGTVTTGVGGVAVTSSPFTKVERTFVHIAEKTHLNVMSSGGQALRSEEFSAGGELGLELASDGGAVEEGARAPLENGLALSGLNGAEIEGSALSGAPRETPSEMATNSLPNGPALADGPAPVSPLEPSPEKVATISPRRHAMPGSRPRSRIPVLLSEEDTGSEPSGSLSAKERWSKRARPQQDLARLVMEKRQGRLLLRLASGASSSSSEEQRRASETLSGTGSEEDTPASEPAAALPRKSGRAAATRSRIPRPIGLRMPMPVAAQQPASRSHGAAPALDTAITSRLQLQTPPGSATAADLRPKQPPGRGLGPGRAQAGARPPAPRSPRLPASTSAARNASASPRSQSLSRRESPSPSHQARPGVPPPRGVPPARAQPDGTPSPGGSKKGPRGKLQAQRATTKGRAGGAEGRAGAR
UniProt Q6IQ55, 1-450: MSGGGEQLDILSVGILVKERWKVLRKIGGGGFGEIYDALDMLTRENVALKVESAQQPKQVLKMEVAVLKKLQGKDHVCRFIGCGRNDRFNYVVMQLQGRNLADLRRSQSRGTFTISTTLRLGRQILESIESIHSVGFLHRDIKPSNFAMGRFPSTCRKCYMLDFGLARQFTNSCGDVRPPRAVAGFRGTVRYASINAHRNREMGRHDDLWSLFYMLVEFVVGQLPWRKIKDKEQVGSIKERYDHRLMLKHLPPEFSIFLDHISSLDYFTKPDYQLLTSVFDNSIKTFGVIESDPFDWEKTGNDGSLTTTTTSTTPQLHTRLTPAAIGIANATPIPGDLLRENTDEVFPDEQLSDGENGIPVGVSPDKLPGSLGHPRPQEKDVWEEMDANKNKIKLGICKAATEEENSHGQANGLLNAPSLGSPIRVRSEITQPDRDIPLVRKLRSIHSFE

Key:
[1] = target: recombinant human enzyme TTBK1 (1-1321) (Homo sapiens (Human), UniProt Q5TCY1); assay: Enzymatic inhibition of TTBK1 (33P-ATP radiometric kinase assay); type: biochemical; conditions: recombinant human TTBK1 (1-1321), 0.005 mM ATP, 30 minutes at room temperature
[2] = target: recombinant human enzyme TTBK2(1-450) (Homo sapiens (Human), UniProt Q6IQ55); assay: Enzymatic inhibition of TTBK2 (33P-ATP radiometric kinase assay); type: biochemical; conditions: recombinant human TTBK2(1-450), 0.005 mM ATP, 30 minutes at room temperature

Row | SMILES | IC50 [1] | IC50 [2]
1 | COc1cccc(Oc2ccc(Nc3ncnc4[nH]ccc34)cc2)c1 [Compound 17, N-[4-(3-methoxyphenoxy)phenyl]-7H-pyrrolo[2,3-d]pyrimidin-4-amine] | 840 ± 130 nM | 6790 ± 270 nM
2 | Brc1ccc(Oc2ccc(Nc3ncnc4[nH]ccc34)cc2)cc1 [Compound 7, N-[4-(4-bromophenoxy)phenyl]-7H-pyrrolo[2,3-d]pyrimidin-4-amine] | 750 ± 30 nM | 1210 ± 60 nM
3 | COc1ccc(Oc2ccc(Nc3ncnc4[nH]ccc34)cc2)cc1 [Compound 5, N-[4-(4-methoxyphenoxy)phenyl]-7H-pyrrolo[2,3-d]pyrimidin-4-amine] | 540 ± 530 nM | 970 ± 500 nM
4 | c1ccc(Oc2ccc(Nc3ncnc4[nH]ccc34)cc2)cc1 [Compound 1, N-(4-phenoxyphenyl)-7H-pyrrolo[2,3-d]pyrimidin-4-amine] | 390 ± 20 nM | 850 ± 310 nM
5 | Nc1nc(Nc2ccc(Oc3ccc(Cl)cc3)cc2)c2cc[nH]c2n1 [Compound 20, N4-(4-(4-chlorophenoxy)phenyl]-7H-pyrrolo[2,3-d]pyrimidine-2,4-diamine] | 450 ± 40 nM | 2700 ± 290 nM
6 | Cc1cccc(Oc2ccc(Nc3ncnc4[nH]ccc34)cc2)c1 [Compound 11, N-[4-(3-methylphenoxy)phenyl]-7H-pyrrolo[2,3-d]pyrimidin-4-amine] | 2200 ± 500 nM | 6400 ± 500 nM
7 | Clc1cccc(Oc2ccc(Nc3ncnc4[nH]ccc34)cc2)c1 [Compound 12, N-[4-(3-chlorophenoxy)phenyl]-7H-pyrrolo[2,3-d]pyrimidin-4-amine] | 1550 ± 1840 nM | –
8 | O=C(c1ccc(F)cc1)c1ccc(Nc2ncnc3[nH]ccc23)cc1 [Compound 26, (4-((7H-pyrrolo[2,3-d]pyrimidin-4-yl)amino)phenyl](4-fluorophenyl)methanone] | 1500 ± 300 nM | 5400 ± 700 nM
9 | N#Cc1ccc(Oc2ccc(Nc3ncnc4[nH]ccc34)cc2)cc1 [Compound 4, N-[4-(4-cyanophenoxy)phenyl]-7H-pyrrolo[2,3-d]pyrimidin-4-amine] | 440 ± 310 nM | 2140 ± 1200 nM
10 | c1ccc(COc2ccc(Nc3ncnc4[nH]ccc34)cc2)cc1 [Compound 24, N-[4-(benzyloxy)phenyl]-7H-pyrrolo[2,3-d]pyrimidin-4-amine] | 750 ± 40 nM | 1210 ± 150 nM
11 | O=[N+]([O-])c1ccc(Oc2ccc(Nc3ncnc4[nH]ccc34)cc2)cc1 [Compound 8, N-[4-(4-nitrophenoxy)phenyl]-7H-pyrrolo[2,3-d]pyrimidin-4-amine] | 420 ± 110 nM | 1240 ± 300 nM
12 | FC(F)(F)c1cccc(Oc2ccc(Nc3ncnc4[nH]ccc34)cc2)c1 [Compound 13, N-[4-(3-trifluoromethylphenoxy)phenyl]-7H-pyrrolo[2,3-d]pyrimidin-4-amine] | 5610 ± 2300 nM | –
13 | O=[N+]([O-])c1ccc(Sc2ccc(Nc3ncnc4[nH]ccc34)cc2)cc1 [Compound 22, N-[4-((4-nitrophenyl)thio)phenyl]-7H-pyrrolo[2,3-d]pyrimidin-4-amine] | 2720 ± 1780 nM | 22700 ± 2840 nM
14 | Cc1ccc(Oc2ccc(Nc3ncnc4[nH]ccc34)cc2)cc1 [Compound 10, N-[4-(4-methylphenoxy)phenyl]-7H-pyrrolo[2,3-d]pyrimidin-4-amine] | 1020 ± 330 nM | 8790 ± 2000 nM
15 | O=C(c1ccccc1)c1ccc(Nc2ncnc3[nH]ccc23)cc1 [Compound 25, (4-((7H-pyrrolo[2,3-d]pyrimidin-4-yl)amino)phenyl](phenyl)methanone] | 1710 ± 870 nM | 11900 ± 4170 nM
16 | Clc1ccccc1Oc1ccc(Nc2ncnc3[nH]ccc23)cc1 [Compound 14, N-[4-(2-chlorophenoxy)phenyl]-7H-pyrrolo[2,3-d]pyrimidin-4-amine] | 530 ± 20 nM | 490 ± 50 nM
17 | FC(F)(F)c1ccc(Oc2ccc(Nc3ncnc4[nH]ccc34)cc2)cc1 [Compound 6, N-[4-(4-trifluoromethylphenoxy)phenyl]-7H-pyrrolo[2,3-d]pyrimidin-4-amine] | 5030 ± 2900 nM | –
18 | Nc1ccc(Oc2ccc(Nc3ncnc4[nH]ccc34)cc2)cc1 [Compound 9, N-[4-(4-aminophenoxy)phenyl]-7H-pyrrolo[2,3-d]pyrimidin-4-amine] | 520 ± 80 nM | 4900 ± 1210 nM
19 | COc1ccccc1Oc1ccc(Nc2ncnc3[nH]ccc23)cc1 [Compound 15, N-[4-(2-methoxyphenoxy)phenyl]-7H-pyrrolo[2,3-d]pyrimidin-4-amine] | 3560 ± 1630 nM | 9540 ± 90 nM
20 | Nc1ccc(Sc2ccc(Nc3ncnc4[nH]ccc34)cc2)cc1 [Compound 23, N-[4-((4-aminophenyl)thio)phenyl]-7H-pyrrolo[2,3-d]pyrimidin-4-amine] | 650 ± 50 nM | 4940 ± 280 nM
